# Measured affinities in a library of Ab-14 light chain variants

The target is the same throughout: PDVDLGDISGINAS, from the HR2 region of SARS-CoV-2 spike.

Parent: Ab-14, a human scFv built as VH, a 15-residue (Gly4Ser)3 linker, VL. Only the CDRs of the light chain vary.
VH: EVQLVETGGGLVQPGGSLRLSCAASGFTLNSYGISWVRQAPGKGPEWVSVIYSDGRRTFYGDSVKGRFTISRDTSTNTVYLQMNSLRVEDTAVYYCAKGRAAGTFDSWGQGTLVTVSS
VL: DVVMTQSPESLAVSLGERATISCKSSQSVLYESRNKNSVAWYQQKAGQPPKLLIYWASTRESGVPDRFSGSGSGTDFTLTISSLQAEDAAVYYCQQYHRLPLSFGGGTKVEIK

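The parent was found by panning a naive human phage display library on the peptide. This is the validation round: designs drawn from the data on random variants, tested in the same kind of assay. Several design methods are mixed in this list. Affinity was read by AlphaSeq, a pooled yeast mating assay with surface-displayed partners. The frequency of each diploid, read from paired DNA barcodes, reflects how well the two displayed proteins bind. Scores were corrected for input abundance and mapped to Kd with protein pairs of known affinity run in the same pool. Each pool was mated in six replicate cultures.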

Each variant is given by its three light chain CDRs, as the data file delimits them; those of the parent are KSSQSVLYESRNKNSVA, WASTRES, QQYHRLPLS. This list holds designs with more than six substitutions. Values are log10 of the apparent Kd in nM; lower means stronger binding. Replicates are averaged; those with no signal do not enter the mean. "nd" means that the variant was in the library but no mating with the target was seen in any replicate; the authors take this as a sign of poor binding, and no number exists. The parent sequence was in this pool as ten entries: three were never detected, three once, and four in most replicates, with averages from 0.34 to 2.37.

KIDISELGESRNGNSVA, NASTREE, QQYHRLPLS: 0.95 (6 of 6 replicates; controls 0 of 18).
KLSQQGHYGSRNANNVA, NASKREQ, QQYHRLPLS: 0.30 (6 of 6 replicates; controls 1 of 18).
LIKGMVEGQLYKQNAIA, NSEERDR, QQYNHLPLS: 0.82 (6 of 6 replicates; controls 2 of 18).
TIGQVMHYESENKNSVA, QTSTREE, QDYHRLPLS: 0.84 (6 of 6 replicates; controls 0 of 18).
KLPQSEPYEERCFNSVA, NASTRCS, QQYHRLPLS: 0.19 (6 of 6 replicates; controls 0 of 18).
KLGQMTAIESRMLNSVA, QMDTRES, QQYHRLPLS: 0.35 (6 of 6 replicates; controls 0 of 18).
KLSWSDLYESRNCNSVA, NASQREV, QQYHRLPLS: 1.28 (6 of 6 replicates; controls 1 of 18).
KLYDMAAVTMQNIRNVA, DNSTREQ, QQYHRLPLS: 0.19 (6 of 6 replicates; controls 1 of 18).
KMTTNLEHQASRKNSIA, EADMVAA, QQYMRLPLI: 0.08 (6 of 6 replicates; controls 0 of 18).
MISNVMNTLSRQGNNVA, DLAERED, QQYFRLPLS: 0.69 (6 of 6 replicates; controls 2 of 18).
QFSNVNMQGNAQWANVA, EATYAFE, QQYARLPLQ: 1.24 (3 of 6 replicates; controls 0 of 18).
RFTEHILGLENKIYAIA, NATVLME, QQYFRLPFA: 0.59 (6 of 6 replicates; controls 1 of 18).
MLDQMDGQMGVNTNNIA, GVVESRI, QQYHRLPLS: 1.73 (6 of 6 replicates; controls 1 of 18).
MISQLYNMGQFAINSVA, QANLREE, QQYDRLPLI: 0.53 (6 of 6 replicates; controls 1 of 18).
KLQNSMLYESRNDNSVA, DASKRES, QQYHRLPLS: 0.16 (6 of 6 replicates; controls 2 of 18).
KVSEFMRGMMRQKNSIA, DNNTRSN, QQYDRLPLS: 1.36 (6 of 6 replicates; controls 2 of 18).
RVSSMLMAGGIHYNNIA, NTKVLEY, QQYMRLPLM: -0.04 (6 of 6 replicates; controls 1 of 18).
KLQGSDPYESRMKNSVA, QASVRES, QQYHRLPLS: 0.59 (6 of 6 replicates; controls 1 of 18).
TISQMTSSFSMNINNVA, EVSTRCK, QQYDRLPLS: 0.66 (6 of 6 replicates; controls 0 of 18).
KIRVNHYMFSQMESNIA, GSSVRST, QQYFHLPLT: 0.46 (6 of 6 replicates; controls 0 of 18).
KLRQSKEYESRQKNSVA, NASTREV, QQYHRLPLS: 0.46 (6 of 6 replicates; controls 0 of 18).
KMSQSQEYESRNSNAVA, NASQRLT, QQYHRLPLS: 0.22 (6 of 6 replicates; controls 0 of 18).
TLYGLSVSMSKNVNNVA, EMTTREK, QQYDRLPLI: 0.71 (6 of 6 replicates; controls 0 of 18).
MISQSFLIGMKAKNSVA, QTNTREQ, QQYDRLPLI: 0.68 (6 of 6 replicates; controls 0 of 18).
HMSAVTLMGSRTRNSVA, QMTTREN, QQYDRLPLA: 0.74 (6 of 6 replicates; controls 2 of 18).
KVSPSMWYESRNKNNVA, HASTRES, QQYHRLPLH: 1.59 (6 of 6 replicates; controls 1 of 18).
IVSQLMLWGMHAPNSIA, EAETRIN, QQYDRLPLF: 1.96 (5 of 6 replicates; controls 0 of 18).
MFSQLTYTGARTRNAVA, QASTREN, QQYHHLPLS: 0.58 (6 of 6 replicates; controls 1 of 18).
TISQSMLMMNQFKNSVA, QASTRES, QCYDRLPLS: 1.79 (3 of 6 replicates; controls 1 of 18).
TLADVTRQESNKKSNIA, DMSNRAA, QQYHRLPIS: 0.54 (6 of 6 replicates; controls 2 of 18).
MISQLMNMGQFAINSVA, QASMRNQ, QQYDRLPLI: 2.17 (1 of 6 replicates; controls 0 of 18).
TISQVMNTMTRHGNNVA, DLENRED, QQYFRLPLS: 0.79 (6 of 6 replicates; controls 1 of 18).
QINMEMNHDLDDAQNVA, DAMTEVK, QQYNRLPLS: 1.74 (1 of 6 replicates; controls 0 of 18).
WLSMSVMLESRNVNSVA, SASTREL, QQYHRLPLS: nd (0 of 6 replicates; controls 0 of 18).
KFSYSELYEERNQNSVA, GASQRLS, QQYHRLPLS: 0.09 (6 of 6 replicates; controls 0 of 18).
RLSALSGIQEVERNSVA, QNSTREQ, QQYDRLPLS: nd (0 of 6 replicates; controls 1 of 18).
KSSGSVMGEDMNKNSVA, QASKRES, QQYHRLPLS: 0.23 (6 of 6 replicates; controls 1 of 18).
KLSTGTYGLTGHASNVA, HDEMRWE, QQYHKLPLI: nd (0 of 6 replicates; controls 2 of 18).
KLQNSYEYESRMKNSVA, NASQRLE, QQYHRLPLS: 0.26 (6 of 6 replicates; controls 2 of 18).
KLQWSNLYWSRNKNSVA, QASTRMM, QQYHRLPLS: 0.89 (6 of 6 replicates; controls 0 of 18).
MISQVMGLNNMYKKSVA, QAEERVT, QQYDHLPLS: 0.26 (6 of 6 replicates; controls 0 of 18).
KISQMVRVGSTHSNSIA, EEATRAK, QQYHRLPLQ: 1.02 (6 of 6 replicates; controls 3 of 18).
KVSQSELGQERNKMSVA, SASTREK, QQYHRLPLS: 0.07 (6 of 6 replicates; controls 2 of 18).
MVSQLMVWGMHARNSIA, EAQTRLN, QQYDRLPLF: 1.73 (2 of 6 replicates; controls 0 of 18).
RVSSNLMAGGIHYNNIA, NTKVLEY, QQYMRLPLG: 0.51 (6 of 6 replicates; controls 0 of 18).
RLKCTSTEHGAQKHAIA, EQVKLNT, QQYGRLPLS: 1.48 (6 of 6 replicates; controls 0 of 18).
KLRQLTHVESFNKNNVA, EMTTRES, QSYDRLPLS: 1.19 (6 of 6 replicates; controls 4 of 18).
KISMLLNSTFETSNNVA, EMATREK, QQYNRLPLS: 1.01 (6 of 6 replicates; controls 0 of 18).
IVSQLMLWGHLAKNSIA, EAQTRLN, QQYDRLPLI: nd (0 of 6 replicates; controls 0 of 18).
KISQVFMMTGKAKNSVA, NAYTRVQ, QQYHRLPLS: 0.32 (6 of 6 replicates; controls 0 of 18).
FIQGNYNDKYQASNSIA, DEAHLMA, QQYDLLPLS: 1.45 (6 of 6 replicates; controls 2 of 18).
KIMQTLNYSSFNVSNVA, GQETRER, QSYHRLPLS: 3.05 (6 of 6 replicates; controls 4 of 18).

Values of this round are not directly comparable with the first-round values of the same sequences. Background: pairings of all light chain designs with three empty control strains gave a value in 4% of cases (median 2.64, 5th percentile 1.59). Values in that range, when seen in few replicates, are hard to tell from nonspecific mating. The control count says in how many pairings with the empty strains this scFv gave a signal. The authors averaged sequences with at least three values out of six and counted those with two or fewer as poor binders.

Values reported by Li et al. 2023, doi:10.1038/s41467-023-39022-2 (FLAb copy).